Experimental data as given in US8916607B2, “Use of piperphentonamine or salts thereof in manufacture of medicaments for treating brain diseases” (Guangzhou Municipal Zhongwei Biotechnology Limited Company, priority 2009, dated 2014).

Key:
[1] = system: local cerebral ischemia of rats; assay: local cerebral ischemia model (MACO): neurobehavioral score and infarction area by TTC staining; conditions: for Behavior disorder / Ischemia area(mm^2): JBTA 1 mg/kg iv, NGF 250 U, Vit B6 0.2 mg/kg, method as example 6; for Behavior disorder (points) / Ischemia arae (mm^2): 30 min after operation, 24 h; for Ischemia arae (mm^2): TTC
[2] = system: local cerebral ischemia of rats; conditions: 24 h after MCAO

Question: Which results are given for COCCOC(=O)C1=C(C)NC(C)=C(C(=O)OC(C)C)C1c1cccc([N+](=O)[O-])c1 (stereo not shown) [nimodipine, reference compound]?
Answer: Behavior disorder [1]: 8.31 ± 1.98; Ischemia area(mm^2) [1]: 25.68 ± 5.99* mm^2; percentage of necrotic neuron (%) cortical neurons ([2]; 1.0 mg/kg (nimodipine 1 mg/kg)): 24.65 ± 4.25 %; percentage of necrotic neuron (%) striatum neurons ([2]; 1.0 mg/kg (nimodipine 1 mg/kg)): 17.85 ± 4.25 %

Question: Which “Behavior disorder (points)” value ([1]; 0.5 mg/kg) does the source give for CN(CCC(=O)/C=C/c1ccc(O)cc1)CCc1ccc2c(c1)OCO2.Cl [piperphentonamine hydrochloride, Piperphentonamine hydrochloride] here?
Answer: 7.59 ± 2.19 points

Question: And the “Ischemia arae (mm^2)” value ([1]; 0.5 mg/kg)?
Answer: 21.51 ± 7.94* mm^2

Question: What about the “Behavior disorder (points)” value ([1]; 2.0 mg/kg) of the same compound?
Answer: 4.83 ± 2.53 points

Question: And the “Ischemia arae (mm^2)” value ([1]; 2.0 mg/kg)?
Answer: 13.57 ± 3.68** mm^2

Question: What about the Behavior disorder [1] of the same compound?
Answer: 7.25 ± 2.83

Question: What about the “Ischemia area(mm^2)” value [1] of the same compound?
Answer: 20.64 ± 4.85* mm^2

Question: What about the “percentage of necrotic neuron (%) cortical neurons” value (“percentage … (%) cortical neurons” for short) ([2]; 0.5 mg/kg) of the same compound?
Answer: 25.5 ± 3.4 %

Question: What about the “percentage of necrotic neuron (%) striatum neurons” value (“percentage … (%) striatum neurons” below) ([2]; 0.5 mg/kg) of the same compound?
Answer: 18.7 ± 3.4 %

Question: And the “percentage … (%) cortical neurons” value ([2]; 1.0 mg/kg (nimodipine 1 mg/kg))?
Answer: 14.45 ± 2.55 %

Question: What about the “percentage … (%) striatum neurons” value ([2]; 1.0 mg/kg (nimodipine 1 mg/kg)) of the same compound?
Answer: 12.75 ± 2.55 %

Question: What about the “percentage … (%) cortical neurons” value ([2]; 2.0 mg/kg) of the same compound?
Answer: 11.05 ± 1.7 %

Question: And the “percentage … (%) striatum neurons” value ([2]; 2.0 mg/kg)?
Answer: 9.35 ± 1.7 %

Read-outs that look alike come from different tables or passages of the source. Marks after values point to notes of the source that are not given here.
